Measured values as given in patent US20220380454A1.

By UniProt entry, the sequences of proteins in these tests, tags left out. Residues count along the entry.
UniProt Q91ZI0, 32-3301: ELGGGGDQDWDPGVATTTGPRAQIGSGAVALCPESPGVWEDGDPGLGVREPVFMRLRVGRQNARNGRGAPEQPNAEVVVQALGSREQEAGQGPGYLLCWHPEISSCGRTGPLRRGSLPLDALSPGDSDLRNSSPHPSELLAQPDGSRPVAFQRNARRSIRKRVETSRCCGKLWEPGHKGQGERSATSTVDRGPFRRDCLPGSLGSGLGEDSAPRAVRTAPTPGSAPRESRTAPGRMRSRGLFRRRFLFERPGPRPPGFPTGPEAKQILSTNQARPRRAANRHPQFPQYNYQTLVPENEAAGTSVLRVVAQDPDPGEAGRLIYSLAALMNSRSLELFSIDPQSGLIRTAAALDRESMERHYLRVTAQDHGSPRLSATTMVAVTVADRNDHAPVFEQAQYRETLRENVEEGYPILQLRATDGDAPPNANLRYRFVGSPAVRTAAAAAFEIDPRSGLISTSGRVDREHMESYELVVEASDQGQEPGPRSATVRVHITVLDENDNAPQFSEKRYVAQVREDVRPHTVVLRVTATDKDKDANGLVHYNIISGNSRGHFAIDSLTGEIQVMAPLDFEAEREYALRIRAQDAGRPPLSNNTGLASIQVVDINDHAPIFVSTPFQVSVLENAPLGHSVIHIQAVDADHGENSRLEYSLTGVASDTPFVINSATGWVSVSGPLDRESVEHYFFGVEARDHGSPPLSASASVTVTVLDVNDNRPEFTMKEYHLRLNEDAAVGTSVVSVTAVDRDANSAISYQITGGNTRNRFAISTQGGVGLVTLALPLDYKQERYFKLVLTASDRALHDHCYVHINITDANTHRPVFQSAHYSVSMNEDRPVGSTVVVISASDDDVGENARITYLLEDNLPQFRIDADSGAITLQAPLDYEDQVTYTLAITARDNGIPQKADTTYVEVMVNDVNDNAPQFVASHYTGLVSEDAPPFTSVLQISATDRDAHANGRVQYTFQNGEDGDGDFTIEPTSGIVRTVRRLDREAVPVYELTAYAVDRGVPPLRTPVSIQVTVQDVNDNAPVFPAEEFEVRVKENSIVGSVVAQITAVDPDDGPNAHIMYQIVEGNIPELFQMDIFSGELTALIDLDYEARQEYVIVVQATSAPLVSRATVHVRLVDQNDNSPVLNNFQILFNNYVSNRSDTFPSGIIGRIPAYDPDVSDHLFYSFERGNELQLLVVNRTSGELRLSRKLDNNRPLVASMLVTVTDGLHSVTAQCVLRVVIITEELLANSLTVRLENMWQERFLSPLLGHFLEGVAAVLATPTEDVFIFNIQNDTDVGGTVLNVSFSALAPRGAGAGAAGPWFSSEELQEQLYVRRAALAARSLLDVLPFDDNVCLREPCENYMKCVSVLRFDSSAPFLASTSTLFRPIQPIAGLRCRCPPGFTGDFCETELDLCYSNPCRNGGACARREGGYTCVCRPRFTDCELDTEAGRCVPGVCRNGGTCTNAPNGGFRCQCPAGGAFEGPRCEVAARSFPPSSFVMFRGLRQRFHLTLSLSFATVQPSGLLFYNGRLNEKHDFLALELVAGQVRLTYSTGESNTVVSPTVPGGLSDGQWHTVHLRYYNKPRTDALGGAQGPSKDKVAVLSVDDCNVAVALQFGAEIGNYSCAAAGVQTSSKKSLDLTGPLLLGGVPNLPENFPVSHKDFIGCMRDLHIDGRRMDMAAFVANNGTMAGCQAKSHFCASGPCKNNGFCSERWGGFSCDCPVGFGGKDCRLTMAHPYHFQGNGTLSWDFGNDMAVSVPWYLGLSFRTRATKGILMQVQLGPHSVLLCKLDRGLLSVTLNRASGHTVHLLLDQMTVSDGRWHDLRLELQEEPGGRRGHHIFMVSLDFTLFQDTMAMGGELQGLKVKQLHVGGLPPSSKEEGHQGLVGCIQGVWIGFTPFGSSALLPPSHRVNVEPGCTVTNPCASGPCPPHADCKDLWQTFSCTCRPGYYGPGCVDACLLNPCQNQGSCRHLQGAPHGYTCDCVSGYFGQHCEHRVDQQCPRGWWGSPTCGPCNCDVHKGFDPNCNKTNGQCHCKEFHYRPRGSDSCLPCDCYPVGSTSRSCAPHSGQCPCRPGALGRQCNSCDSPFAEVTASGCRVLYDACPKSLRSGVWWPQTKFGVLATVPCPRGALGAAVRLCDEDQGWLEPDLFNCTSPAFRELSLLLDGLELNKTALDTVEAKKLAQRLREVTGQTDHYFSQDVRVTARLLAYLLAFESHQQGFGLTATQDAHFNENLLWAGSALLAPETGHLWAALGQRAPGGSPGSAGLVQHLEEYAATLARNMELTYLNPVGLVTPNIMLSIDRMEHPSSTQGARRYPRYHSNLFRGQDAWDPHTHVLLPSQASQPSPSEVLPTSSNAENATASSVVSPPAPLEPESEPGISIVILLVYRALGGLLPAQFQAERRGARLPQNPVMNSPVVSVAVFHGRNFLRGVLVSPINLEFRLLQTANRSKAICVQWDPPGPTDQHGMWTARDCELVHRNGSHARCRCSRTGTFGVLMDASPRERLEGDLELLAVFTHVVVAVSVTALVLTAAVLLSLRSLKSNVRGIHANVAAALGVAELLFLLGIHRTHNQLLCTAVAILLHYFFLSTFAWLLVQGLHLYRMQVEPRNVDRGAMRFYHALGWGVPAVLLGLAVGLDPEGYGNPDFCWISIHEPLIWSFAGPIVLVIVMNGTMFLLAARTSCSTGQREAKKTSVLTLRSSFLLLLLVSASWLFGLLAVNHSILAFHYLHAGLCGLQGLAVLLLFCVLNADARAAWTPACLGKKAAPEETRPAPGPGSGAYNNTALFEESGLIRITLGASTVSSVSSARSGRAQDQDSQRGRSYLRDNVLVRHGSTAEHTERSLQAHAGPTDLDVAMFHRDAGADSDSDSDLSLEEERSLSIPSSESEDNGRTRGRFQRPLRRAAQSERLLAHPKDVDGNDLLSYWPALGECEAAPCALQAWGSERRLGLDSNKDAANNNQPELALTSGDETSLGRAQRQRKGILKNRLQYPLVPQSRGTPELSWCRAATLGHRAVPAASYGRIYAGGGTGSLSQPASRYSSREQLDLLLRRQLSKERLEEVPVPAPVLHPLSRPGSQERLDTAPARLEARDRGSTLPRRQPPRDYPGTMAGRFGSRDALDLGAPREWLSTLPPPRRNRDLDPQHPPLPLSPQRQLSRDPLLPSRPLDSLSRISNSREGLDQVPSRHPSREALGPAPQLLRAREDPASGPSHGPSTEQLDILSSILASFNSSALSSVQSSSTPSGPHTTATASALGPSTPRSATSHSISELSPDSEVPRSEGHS

Experiments:
[1] = molecular target: mouse Celsr3 (Celsr3-Flag) (mouse) (UniProt Q91ZI0); test: biotin-Aβ42 oligomers on Celsr3-Flag HEK293T cells, streptavidin-488 imaging; concentration as total peptide, monomer equivalent
[2] = molecular target: mouse Celsr3 (Celsr3-Flag) (mouse) (UniProt Q91ZI0); test: binding of biotin-Aβ42 oligomers to Celsr3-expressing HEK293T cells; concentration as total peptide, monomer equivalent

- Kd [1]: 40 nM
- Kd [2]: 39.2 nM
Substance: oligomeric Aβ42 (biotin-Aβ42 oligomers) (peptide; biotin (human biotin-beta-Amyloid (1-42), AnaSpec); position not stated)
